Measured values taken from US7750036B2, “Carvedilol salts, corresponding compositions, methods of delivery and/or treatment” (SB Pharmco Puerto Rico Inc., priority 2004, dated 2010).

Experiment: Solubility in water of carvedilol free base and salts (shaken vials, UV-Vis)
Settings: for solubility in water: room temperature

## COc1ccccc1OCCNCC(O)COc1cccc2[nH]c3ccccc3c12 (racemic) [Carvedilol]
Table 11, 25° C., 24 hr
  Aqueous Solubility: 0.0116 mg of carvedilol free base/mL of solution
Table 13, 25° C., 24 hr
  pH of the solution: (pH = 7.0)

## COc1ccccc1OCCNCC(O)COc1cccc2[nH]c3ccccc3c12.O.O=C(O)CC(O)(CC(=O)O)C(=O)O (centres unmarked) [Carvedilol Mono-Citrate Salt, Carvedilol Monocitrate Monohydrate]
  pH value when dissolved in water: ~3
Table 11, 25° C., 1 hr
  Aqueous Solubility: 1.63 mg of carvedilol free base/mL of solution
  pH of the filtered solution: 3.5
Table 11, 25° C., 4 hr
  Aqueous Solubility: 1.47 mg of carvedilol free base/mL of solution
  pH of the filtered solution: 3.4
Table 11, 25° C., 24 hr
  Aqueous Solubility: 1.07 mg of carvedilol free base/mL of solution
  pH of the filtered solution: 3.0
Table 11, 25° C., 48 hr
  Aqueous Solubility: 1.02 mg of carvedilol free base/mL of solution
  pH of the filtered solution: 3.0
Table 13
  aqueous solubility compared with free base: much better aqueous solubility than the free base
Table 13, 25° C., 1 hr
  Aqueous Solubility: 1.64 mg of Carvedilol free base/mL of solution
  pH of the solution: 3.3
Table 13, 25° C., 4 hr
  Aqueous Solubility: 1.74 mg of Carvedilol free base/mL of solution
  pH of the solution: 3.2
Table 13, 25° C., 24 hr
  Aqueous Solubility: 1.46 mg of Carvedilol free base/mL of solution
  pH of the solution: 3.2
At 1 hour
  solubility in water: 1630 µg/mL
At 48 hour
  solubility in water: 1020 µg/mL
